Laboratory results published in ChEMBL document CHEMBL2177012, “Inhibitor of ovarian cancer cells growth by virtual screening: a new thiazole derivative targeting human thymidylate synthase” (J Med Chem, 2012).

Sequences of proteins named here, by UniProt entry; tags and fusion partners are left off. A change or cut given only in a name is not applied to a line headed by its entry.
UniProt P04818: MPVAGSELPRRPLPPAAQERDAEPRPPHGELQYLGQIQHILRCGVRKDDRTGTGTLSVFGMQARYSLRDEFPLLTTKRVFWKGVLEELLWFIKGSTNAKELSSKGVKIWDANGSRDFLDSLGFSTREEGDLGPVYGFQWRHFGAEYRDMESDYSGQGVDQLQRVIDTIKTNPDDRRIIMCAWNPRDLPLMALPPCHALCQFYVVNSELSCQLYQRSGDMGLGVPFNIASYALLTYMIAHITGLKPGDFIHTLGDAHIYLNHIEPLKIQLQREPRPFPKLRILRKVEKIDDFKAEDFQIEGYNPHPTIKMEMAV

Biological target: Thymidylate synthase (Homo sapiens, UniProt P04818)
Assay: Inhibition of human thymidylate synthase expressed in Escherichia coli incubated for 1 hr assessed as increase in mTHF Km value by spectrophotometry based Lineweaver-Burk method relative to untreated control

For O=C(CC1S/C(=N\N=C\c2ccccc2O)N=C1O)Nc1cccc(C(F)(F)F)c1 (stereo unspecified), the fold change (FC) was 3.5.
